Sequences of proteins named here, by UniProt entry; tags and fusion partners are left off.
UniProt P78417, whole entry: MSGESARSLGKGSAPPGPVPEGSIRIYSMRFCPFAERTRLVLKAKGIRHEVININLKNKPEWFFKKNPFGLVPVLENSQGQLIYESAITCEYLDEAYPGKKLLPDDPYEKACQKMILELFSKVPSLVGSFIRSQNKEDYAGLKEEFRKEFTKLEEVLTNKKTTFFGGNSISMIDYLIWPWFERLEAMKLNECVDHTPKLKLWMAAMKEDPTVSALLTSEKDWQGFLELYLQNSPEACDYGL

In article PMC5059489, “Mechanistic evaluation and transcriptional signature of a glutathione S-transferase omega 1 inhibitor” (Nature Communications, 2016):

Tests used:
recombinant GSTO1 [1] = biological target: T1, recombinant GSTO1 (Homo sapiens, UniProt P78417); test: In-gel fluorescence competitive CMFDA binding assay, recombinant GSTO1; settings: inhibition of CMFDA binding
endogenous GSTO1 = endogenous GSTO1 (Homo sapiens, UniProt P78417); test: In-gel fluorescence competitive CMFDA binding assay, endogenous GSTO1 in HCT116; settings: inhibition of CMFDA binding
HCT116p53+/+ cell = test: MTT cell proliferation at single concentration; format: cell-based, human
recombinant GSTO1 [2] = biological target: T1, recombinant GSTO1; test: GSTO1 substrate assay (reduction of 4-NPG)

O=C(CCl)Nc1cccc(-c2nnc3n2CCCCC3)c1
GSTO binding assay (% Inhibition at 10 µM) Recombinant (recombinant GSTO1 [1]): 56.6% | GSTO binding assay (% Inhibition at 10 µM) Endogenous (endogenous GSTO1): 63.0% | % Inhibition of HCT116p53+/+ cell proliferation at 10 µM (HCT116p53+/+ cell): 36.5% | GSTO substrate assay % Inhibition at 10 µM (recombinant GSTO1 [2]; 10 µM): 89.8% | IC50 (recombinant GSTO1 [2]; read-out: GSTO substrate assay IC50, cluster screening tables): 4.79 µM
